Data from patent publication EP2305660A1, “New thiadiazole derivatives” (Almirall, S.A., priority 2009, dated 2011).
pEC50: −log10 of the molar value.

Protein sequences, listed by entry. Tags and fused reporters are not part of them.
UniProt P21453, whole entry, species assumed: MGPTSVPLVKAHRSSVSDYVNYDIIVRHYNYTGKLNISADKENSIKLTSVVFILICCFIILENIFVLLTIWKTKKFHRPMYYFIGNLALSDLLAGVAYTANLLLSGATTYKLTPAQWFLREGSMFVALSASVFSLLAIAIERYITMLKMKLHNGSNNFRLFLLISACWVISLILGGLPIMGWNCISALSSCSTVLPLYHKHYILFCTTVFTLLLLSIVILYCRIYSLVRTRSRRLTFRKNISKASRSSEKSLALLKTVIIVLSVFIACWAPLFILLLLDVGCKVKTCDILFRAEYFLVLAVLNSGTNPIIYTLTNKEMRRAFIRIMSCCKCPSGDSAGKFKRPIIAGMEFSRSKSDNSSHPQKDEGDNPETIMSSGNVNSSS

Target: S1P1 (Homo sapiens, UniProt P21453)
Assay: 35S-GTPyS binding assay (membranes)
Type: biochemical
Conditions: compound 0.1nM-10µM, 0.1nM 35S-GTPyS, 10µM S1P as 100% maximum efficacy, 90 min at room temperature
Description: The effect of the compounds was measured using a 35S-GTPyS binding assay. Briefly, membranes were incubated in a buffer containing 20 mM HEPES pH 7.4, 100 mM NaCl, 10 mM MgCl2, 10µM GDP, 50µg/ml saponin and 0.2% fatty acid-free BSA at various concentrations (0.1nM-10µM) and 0.1nM 35S-GTPyS. 10µM S1P was used as 100% maximum efficacy. The assay was incubated for 90 min at room temperature with gentle mixing, and terminated by filtrating the reaction mixture through GF/C filter plates using the Manifold Filtration System. The filters were immediately washed with sodium phosphate pH 7.4 buffer. After drying the filter plates scintillant liquid were added to each well and 35S-GTPyS binding was measured on a Trilux Scintillation Counter.

| Substance | pEC50 |
| --- | --- |
| (1S,2R)-2-{[2-(4-{5-[butyl(2-chlorobenzoyl)amino]-1,3,4-thiadiazol-2-yl}-2,6-dimethylphenoxy)ethyl]amino}cyclopentanecarboxylic acid [Example 68] | 8.00 |
| N-[2-(4-{5-[butyl(2-chlorobenzoyl)amino]-1,3,4-thiadiazol-2-yl}-2,6-dimethylphenoxy)ethyl]-N-methylglycine [Example 45] | 8.55 |
